TC/HDL and Waist data for 1 compound are collected here from US8389247B2, “Physiogenomic method for predicting diabetes and metabolic syndromes induced by psychotropic drugs” (priority 2006, dated 2013).

This data set in a line: Outcome variables of patients on each psychotropic drug broken down by demographic factors (Covariates tables). The following applies: human, in vivo.

For `OCCOCCN1CCN(C2=Nc3ccccc3Sc3ccccc32)CC1` [Quetiapine, quetiapine], the TC/HDL is 4.023 and the Waist came out at 102.05.
